Earlier results as cited in patent publication US20210213132A1, “FORMULATIONS OF SN-38 WITH POLY(AMINO ACID) BLOCK POLYMERS” (Tyndall Formulation Services, LLC, priority 2020, published 2021).

Tested on: carboxylesterases, specifically CES1 and CES2
Conditions: estimated; Rivory et al. 1996

Fraction of the prodrug hydrolyzed to SN-38: less than 10%
SMILES: CCc1c2c(nc3ccc(OC(=O)N4CCC(N5CCCCC5)CC4)cc13)-c1cc3c(c(=O)n1C2)COC(=O)[C@]3(O)CC [Irinotecan]
